From patent US9890152B2 (Genentech, Inc., priority 2012, dated 2018)

Protein sequences, listed by entry. Tags and fused reporters are not part of them. Residues count along the entry.
UniProt P00533, 25-1210 T790M/L858R limits assumed: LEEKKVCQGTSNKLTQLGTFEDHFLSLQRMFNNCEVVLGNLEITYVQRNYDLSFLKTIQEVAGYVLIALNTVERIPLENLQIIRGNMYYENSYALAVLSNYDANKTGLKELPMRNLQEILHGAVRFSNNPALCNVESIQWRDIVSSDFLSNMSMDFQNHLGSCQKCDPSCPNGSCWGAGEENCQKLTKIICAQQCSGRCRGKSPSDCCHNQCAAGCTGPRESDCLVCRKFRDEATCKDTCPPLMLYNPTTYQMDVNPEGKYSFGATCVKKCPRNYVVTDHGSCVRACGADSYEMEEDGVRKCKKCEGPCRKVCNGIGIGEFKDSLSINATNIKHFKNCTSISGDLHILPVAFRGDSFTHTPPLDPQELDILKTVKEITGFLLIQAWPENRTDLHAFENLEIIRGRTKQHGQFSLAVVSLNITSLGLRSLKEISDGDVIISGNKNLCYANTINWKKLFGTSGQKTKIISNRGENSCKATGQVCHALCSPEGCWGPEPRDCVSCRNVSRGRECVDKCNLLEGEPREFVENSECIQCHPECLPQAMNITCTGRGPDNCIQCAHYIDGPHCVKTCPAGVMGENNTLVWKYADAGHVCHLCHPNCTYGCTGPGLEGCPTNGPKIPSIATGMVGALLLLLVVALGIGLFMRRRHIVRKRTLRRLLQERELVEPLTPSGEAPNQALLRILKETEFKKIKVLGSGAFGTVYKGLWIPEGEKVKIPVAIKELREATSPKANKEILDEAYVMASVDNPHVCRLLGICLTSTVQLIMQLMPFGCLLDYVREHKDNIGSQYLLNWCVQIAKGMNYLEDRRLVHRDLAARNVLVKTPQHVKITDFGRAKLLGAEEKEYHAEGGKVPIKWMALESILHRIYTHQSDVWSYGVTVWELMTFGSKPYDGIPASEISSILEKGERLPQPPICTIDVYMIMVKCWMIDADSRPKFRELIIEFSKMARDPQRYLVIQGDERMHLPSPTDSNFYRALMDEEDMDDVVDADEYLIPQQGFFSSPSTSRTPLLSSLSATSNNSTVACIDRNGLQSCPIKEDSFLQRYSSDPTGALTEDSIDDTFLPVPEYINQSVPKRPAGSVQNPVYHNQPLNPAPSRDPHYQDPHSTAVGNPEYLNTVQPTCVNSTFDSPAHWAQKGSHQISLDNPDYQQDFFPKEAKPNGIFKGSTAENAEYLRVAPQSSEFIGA

Molecular target: EGFR T790M L858R (Homo sapiens, UniProt P00533, L858R/T790M)
Assay: biochemical
Conditions: EGFR(T790M/L858R) Ki (μM), 5 μM ATP, 30 min, room temperature; apparent Ki (Morrison) converted by Cheng-Prusoff, Km of ATP 1.3 μM

Ki [µM] | Structure (SMILES)
0.00142 | CCC(C)n1cc(N2CCCC2=O)c2cnc(Nc3ccnc(N4CC[C@@H](O)[C@@H](F)C4)n3)cc21 (mixture of isomers) [Example 641, 1-(1-(sec-butyl)-6-((2-((3S,4R)-3-fluoro-4-hydroxypiperidin-1-yl)pyrimidin-4-yl)amino)-1H-pyrrolo[3,2-c]pyridin-3-yl)pyrrolidin-2-one]
0.011 | CO[C@H]1CCN(c2nccc(Nc3cc4c(cn3)nc(C)n4C(C)C)n2)[C@@H](C)C1 (racemic) [Example 511, (±)-1-Isopropyl-N-(2-(4-methoxy-2-methylpiperidin-1-yl)pyrimidin-4-yl)-2-methyl-1H-imidazo[4,5-c]pyridin-6-amine]
0.00524 | CC(C)n1c(CO)nc2cnc(Nc3ccnc(N4CCC5(OCCO5)C(F)C4)n3)cc21 (centres unmarked) [Example 654]
0.579 | COC1CCN(c2nccc(Nc3cc4c(cn3)ncn4C(C)C)n2)C1 (centres unmarked) [Example 65, 1-isopropyl-N-(2-(3-methoxypyrrolidin-1-yl)pyrimidin-4-yl)-1H-imidazo[4,5-c]pyridin-6-amine]
0.0442 | CCN1CCN(C(=O)c2cn(C(C)C)c3cc(Nc4ccnc(N5CCC(OC)CC5)n4)ncc23)CC1 [Example 122, (4-ethylpiperazin-1-yl)(1-isopropyl-6-((2-(4-methoxypiperidin-1-yl)pyrimidin-4-yl)amino)-1H-pyrrolo[3,2-c]pyridin-3-yl)methanone]
0.312 | CC(C)n1cnc2cnc(Nc3ccnc(N4CCC(OC(F)(F)F)CC4)n3)cc21 [Example 43, 1-Isopropyl-N-(2-(4-(trifluoromethoxy)piperidin-1-yl)pyrimidin-4-yl)-1H-imidazo[4,5-c]pyridin-6-amine]
0.00358 | C[C@H](n1c([C@@H](C)O)nc2cnc(Nc3ccnc(N4CC[C@](C)(O)[C@H](F)C4)n3)cc21)C(F)(F)F [Example 676]
0.0302 | CC(C)n1c(CO)nc2cnc(Nc3ccnc(N4CC[C@](C)(O)[C@H](F)C4)n3)cc21 (racemic) [Example 619, (3RS,4SR)-3-Fluoro-1-[4-(2-hydroxymethyl-1-isopropyl-1H-imidazo[4,5-c]pyridin-6-ylamino)pyrimidin-2-yl]-4-methylpiperidin-4-ol]
0.0659 | CO[C@@H]1CCN(c2nccc(Nc3cc4c(cn3)nc(CO)n4C(C)C)n2)C[C@H]1C [Example 699]
0.00561 | CCOCCS(=O)(=O)n1cc(-c2nccc(Nc3cc4c(cn3)nc(C)n4C(C)C)n2)cn1 [Example 405, N-(2-(1-((2-ethoxyethyl)sulfonyl)-1H-pyrazol-4-yl)pyrimidin-4-yl)-1-isopropyl-2-methyl-1H-imidazo[4,5-c]pyridin-6-amine]
0.434 | CC(C)n1cnc2cnc(Nc3ccnc(-c4cnc(O)nc4)n3)cc21 [Example 94, 4-((1-isopropyl-1H-imidazo[4,5-c]pyridin-6-yl)amino)-[2,5′-bipyrimidin]-2′-ol]
0.0807 | Cc1nc2cnc(Nc3ccnc(-c4cnn(C(C)(C)CO)c4)n3)cc2n1C(C)C [Example 342, 2-(4-(4-((1-Isopropyl-2-methyl-1H-imidazo[4,5-c]pyridin-6-yl)amino)pyrimidin-2-yl)-1H-pyrazol-1-yl)-2-methylpropan-1-ol]
0.00163 | CCC(C)n1cc(C(=O)NC2CCN(C3COC3)CC2)c2cnc(Nc3ccnc(N4CC[C@H](O)[C@H](F)C4)n3)cc21 (mixture of isomers) [Example 389, 1-(sec-butyl)-6-((2-((3R,4S)-3-fluoro-4-hydroxypiperidin-1-yl)pyrimidin-4-yl)amino)-N-(1-(oxetan-3-yl)piperidin-4-yl)-1H-pyrrolo[3,2-c]pyridine-3-carboxamide]
0.00153 | C[C@H](n1c(CO)nc2cnc(Nc3ccnc(-c4cnn(S(=O)(=O)C5CC5)c4)n3)cc21)C(F)(F)F [Example 571, [6-[2-(1-Cyclopropanesulfonyl-1H-pyrazol-4-yl)pyrimidin-4-ylamino]-1-((S)-2,2,2-trifluoro-1-methyl-ethyl)-1H-imidazo[4,5-c]pyridin-2-yl]methanol]
0.269 | COC1CCN(c2nccc(Nc3cc4c(cn3)nc(C)n4[C@@H]3CC[C@H](C#N)C3)n2)CC1 (relative stereo) [Example 350, (cis)-3-(6-((2-(4-methoxypiperidin-1-yl)pyrimidin-4-yl)amino)-2-methyl-1H-imidazo[4,5-c]pyridin-1-yl)cyclopentanecarbonitrile]
0.111 | CC(C)n1cnc2cnc(Nc3ccnc(-c4cnc(N)nc4)n3)cc21 [Example 84, N4-(1-isopropyl-1H-imidazo[4,5-c]pyridin-6-yl)-2,5′-bipyrimidine-2′,4-diamine]
0.00249 | CC(n1cc(C(=O)NC2CCOCC2)c2cnc(Nc3ccnc(-c4cnn(S(=O)(=O)C5CC5)c4)n3)cc21)C(F)(F)F (centres unmarked) [Example 635, 6-(2-(1-(Cyclopropylsulfonyl)-1H-pyrazol-4-yl)pyrimidin-4-ylamino)-N-(tetrahydro-2H-pyran-4-yl)-1-(1,1,1-trifluoropropan-2-yl)-1H-pyrrolo[3,2-c]pyridine-3-carboxamide]
0.0242 | CO[C@@H]1CCN(c2nccc(Nc3cc4c(cn3)nc(C)n4C(C)C)n2)C[C@H]1O (racemic) [Example 508, (±)-1-(4-((1-Isopropyl-2-methyl-1H-imidazo[4,5-c]pyridin-6-yl)amino)pyrimidin-2-yl)-4-methoxypiperidin-3-ol]

Ki [µM] | Structure (SMILES)
0.0113 | COC1CCN(c2nccc(Nc3cc4c(cn3)ncn4C3CCCCC3)n2)CC1 [Example 152, (1-Cyclohexyl-1H-imidazo[4,5-c]pyridin-6-yl)-[2-(4-methoxypiperidin-1-yl)pyrimidin-4-yl]amine]
0.0219 | Cc1nn(S(=O)(=O)C2CC2)cc1-c1nccc(Nc2cc3c(cn2)nc(C)n3C(C)C)n1 [Example 400, N-(2-(1-(cyclopropylsulfonyl)-3-methyl-1H-pyrazol-4-yl)pyrimidin-4-yl)-1-isopropyl-2-methyl-1H-imidazo[4,5-c]pyridin-6-amine]
0.0833 | COC1CCN(c2nccc(Nc3cc4c(cn3)ncn4CC(F)(F)F)n2)CC1 [Example 149, [2-(4-Methoxypiperidin-1-yl)-pyrimidin-4-yl]-[1-(2,2,2-trifluoroethyl)-1H-imidazo[4,5-c]pyridin-6-yl]amine formate salt]
0.0146 | CC(C)n1cc(C(=O)NC2COC2)c2cnc(Nc3ccnc(-c4cnn(S(=O)(=O)N5CCCC5)c4)n3)cc21 [Example 388, 1-isopropyl-N-(oxetan-3-yl)-6-((2-(1-(pyrrolidin-1-ylsulfonyl)-1H-pyrazol-4-yl)pyrimidin-4-yl)amino)-1H-pyrrolo[3,2-c]pyridine-3-carboxamide]
0.000946 | CC(C)n1cc(-c2cnn(C(CO)CO)c2)c2cnc(Nc3ccnc(-c4cnn(S(=O)(=O)C5CC5)c4)n3)cc21 [Example 439, 2-(4-(6-(2-(1-(cyclopropylsulfonyl)-1H-pyrazol-4-yl)pyrimidin-4-ylamino)-1-isopropyl-1H-pyrrolo[3,2-c]pyridin-3-yl)-1H-pyrazol-1-yl)propane-1,3-diol]
0.00406 | COC1CCN(c2nccc(Nc3cc4c(cn3)c(C(=O)NC3CCN(C5COC5)CC3)cn4C(C)C)n2)CC1 [Example 449, 1-isopropyl-6-(2-(4-methoxypiperidin-1-yl)pyrimidin-4-ylamino)-N-(1-(oxetan-3-yl)piperidin-4-yl)-1H-pyrrolo[3,2-c] pyridine-3-carboxamide]
0.536 | Cc1nc2cnc(Nc3ccnc(C#N)n3)cc2n1C(C)C [Example 276, 4-(1-Isopropyl-2-methyl-1H-imidazo[4,5-c]pyridin-6-ylamino)pyrimidine-2-carbonitrile]
0.178 | COC1CCN(c2nccc(Nc3cc4c(cn3)nc(CN(C)C)n4C(C)C)n2)CC1 [Example 9, (2-Dimethylaminomethyl-1-isopropyl-1H-imidazo[4,5-c]pyridin-6-yl)-[2-(4-methoxypiperidin-1-yl)pyrimidin-4-yl]amine formate salt]
0.00577 | C[C@H](O)c1nc2cnc(Nc3ccnc(N4CC[C@H](O)[C@H](F)C4)n3)cc2n1[C@@H](C)C(F)(F)F [Example 686]
0.0119 | COC(C)c1nc2cnc(Nc3ccnc(-c4cnn(S(=O)(=O)C5CC5)c4)n3)cc2n1C(C)C (racemic) [Example 566, (±)-[2-(1-Cyclopropanesulfonyl-1H-pyrazol-4-yl)pyrimidin-4-yl]-[1-isopropyl-2-(1-methoxy-ethyl)-1H-imidazo[4,5-c]pyridin-6-yl]amine]
0.0023 | COCCS(=O)(=O)n1cc(-c2nccc(Nc3cc4c(cn3)nc(C)n4C(C)C)n2)cn1 [Example 93, 1-isopropyl-N-(2-(1-((2-methoxyethyl)sulfonyl)-1H-pyrazol-4-yl)pyrimidin-4-yl)-2-methyl-1H-imidazo[4,5-c]pyridin-6-amine]
0.0254 | Cc1nc2cnc(Nc3ccnc(N4CC[C@@](C)(O)[C@H](F)C4)n3)cc2n1C(C)C [Example 674]
0.76 | CC(C)n1cnc2cnc(Nc3ccnc(N4CCOC5(CCNCC5)C4)n3)cc21 [Example 231]
0.294 | Cc1nc2cnc(Nc3ccnc(N4CCCC(C#N)C4)n3)cc2n1C(C)C (centres unmarked) [Example 292, 1-[4-(1-Isopropyl-2-methyl-1H-imidazo[4,5-c]pyridin-6-ylamino)pyrimidin-2-yl]piperidine-3-carbonitrile]
0.0841 | COC1CCN(c2nccc(Nc3cc4c(cn3)nc(C)n4C(C)CO)n2)CC1 (centres unmarked) [Example 489, 2-{6-[2-(4-Methoxypiperidin-1-yl)pyrimidin-4-ylamino]-2-methyl-imidazo[4,5-c]pyridin-1-yl}propan-1-ol]
0.00114 | CCS(=O)(=O)n1cc(-c2nccc(Nc3cc4c(cn3)c(-c3cnn(CC(=O)NC5CCOCC5)c3)cn4C(C)C)n2)cn1 [Example 444, 2-(4-(6-(2-(1-(ethylsulfonyl)-1H-pyrazol-4-yl)pyrimidin-4-ylamino)-1-isopropyl-1H-pyrrolo[3,2-c]pyridin-3-yl)-1H-pyrazol-1-yl)-H-(tetrahydro-2H-pyran-4-yl)acetamide]
0.133 | CCC/C=C/c1nccc(Nc2cc3c(cn2)nc(C)n3C(C)C)n1 [Example 307]

Counter-ions that a name gives are not always drawn.
